## scFv variants of Ab-14 (light chain) against a SARS-CoV-2 spike peptide

Source: Engelhart et al. 2022 (doi:10.1038/s41597-022-01779-4), MIT Lincoln Laboratory and A-Alpha Bio; data file from the FLAb repository.

Antigen: PDVDLGDISGINAS, a 14-residue peptide of the SARS-CoV-2 spike HR2 region.

Each scFv is VH, three GGGGS repeats, VL, as in the parent Ab-14, and differs from it in the CDRs of the light chain only.
VH: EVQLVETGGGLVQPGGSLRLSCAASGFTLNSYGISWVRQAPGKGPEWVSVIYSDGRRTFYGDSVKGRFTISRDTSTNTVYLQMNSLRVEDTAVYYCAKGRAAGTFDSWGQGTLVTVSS
VL: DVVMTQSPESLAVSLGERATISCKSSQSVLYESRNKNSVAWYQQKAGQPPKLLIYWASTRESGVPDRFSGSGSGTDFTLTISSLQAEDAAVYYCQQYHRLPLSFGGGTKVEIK

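The starting antibody came from a phage panning campaign against this peptide. Variants in AAYL50 differ from the parent at up to three CDR positions; double and triple changes were sampled at random. In AlphaSeq, yeast of one mating type display the scFv and yeast of the other type display the target. After mating in shaken culture at 30 °C for 16 h, diploids were selected and their barcode pairs sequenced. A regression on co-assayed BCL2-family reference pairs converts the normalised counts of each replicate to an apparent Kd. There are three technical replicates.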

Substitutions are numbered in sequence along the VL above, starting at 1 (not Kabat). The read-out is the apparent dissociation constant on a log10 scale (nM): the lower, the stronger. "n.d." means that the variant was in the library but no mating with the target was seen in that replicate; the authors take this as a sign of poor binding, and no number exists. As a blank, each scFv also met three strains without target: over library AAYL50, 18% of these pairings were detected, typically at 4.19 and seldom below 2.99. For each scFv, signals with the empty controls are counted beside the result, with their mean in brackets. In this assay the parent's reference entry averaged 0.65; its copy inside this library read 1.68.

{"changes": "S26K Y31V Q95M", "replicates, log10 nM": "1.16 2.12 1.38", "signal with controls": "0/9"}
{"changes": "A57Q H98I R99M", "replicates, log10 nM": "n.d. n.d. n.d.", "signal with controls": "1/9 (3.52)"}
{"changes": "K24W V29Y R60V", "replicates, log10 nM": "n.d. n.d. n.d.", "signal with controls": "0/9"}
{"changes": "S33A W56G Y97T", "replicates, log10 nM": "5.54 4.54 n.d.", "signal with controls": "1/9 (3.84)"}
{"changes": "A40M A57Y R60T", "replicates, log10 nM": "n.d. n.d. n.d.", "signal with controls": "0/9"}
{"changes": "V39I W56T R60G", "replicates, log10 nM": "n.d. 3.32 n.d.", "signal with controls": "1/9 (2.74)"}
{"changes": "S38C W56M L102P", "replicates, log10 nM": "n.d. n.d. n.d.", "signal with controls": "0/9"}
{"changes": "S25N L30P A40G", "replicates, log10 nM": "n.d. n.d. n.d.", "signal with controls": "0/9"}
{"changes": "A40I Q95N H98A", "replicates, log10 nM": "n.d. n.d. 3.63", "signal with controls": "1/9 (5.95)"}
{"changes": "E32N N35E S62R", "replicates, log10 nM": "0.92 0.90 0.87", "signal with controls": "2/9 (4.71)"}
{"changes": "V29Y A40D P101D", "replicates, log10 nM": "n.d. n.d. n.d.", "signal with controls": "0/9"}
{"changes": "S26T V29M", "replicates, log10 nM": "1.37 1.45 1.55", "signal with controls": "6/9 (4.46)"}
{"changes": "R34I Q96D L102E", "replicates, log10 nM": "n.d. n.d. n.d.", "signal with controls": "1/9 (4.43)"}
{"changes": "S28T K36H S58R", "replicates, log10 nM": "2.52 3.22 2.35", "signal with controls": "0/9"}
{"changes": "S38M V39G S62V", "replicates, log10 nM": "4.37 4.04 n.d.", "signal with controls": "3/9 (4.20)"}
{"changes": "S28C V39M E61F", "replicates, log10 nM": "n.d. n.d. n.d.", "signal with controls": "0/9"}
{"changes": "N35A", "replicates, log10 nM": "0.92 1.07 0.92", "signal with controls": "0/9"}
{"changes": "S28Q H98F L102I", "replicates, log10 nM": "0.77 0.85 0.83", "signal with controls": "2/9 (3.41)"}
{"changes": "K24T E32I L100Y", "replicates, log10 nM": "n.d. n.d. n.d.", "signal with controls": "0/9"}